Patent publication US9937115B2, “Oral care compositions with improved flavor” (priority 2010, dated 2018)

Protein sequences, listed by entry. Tags and fused reporters are not part of them.
UniProt O75762, whole entry: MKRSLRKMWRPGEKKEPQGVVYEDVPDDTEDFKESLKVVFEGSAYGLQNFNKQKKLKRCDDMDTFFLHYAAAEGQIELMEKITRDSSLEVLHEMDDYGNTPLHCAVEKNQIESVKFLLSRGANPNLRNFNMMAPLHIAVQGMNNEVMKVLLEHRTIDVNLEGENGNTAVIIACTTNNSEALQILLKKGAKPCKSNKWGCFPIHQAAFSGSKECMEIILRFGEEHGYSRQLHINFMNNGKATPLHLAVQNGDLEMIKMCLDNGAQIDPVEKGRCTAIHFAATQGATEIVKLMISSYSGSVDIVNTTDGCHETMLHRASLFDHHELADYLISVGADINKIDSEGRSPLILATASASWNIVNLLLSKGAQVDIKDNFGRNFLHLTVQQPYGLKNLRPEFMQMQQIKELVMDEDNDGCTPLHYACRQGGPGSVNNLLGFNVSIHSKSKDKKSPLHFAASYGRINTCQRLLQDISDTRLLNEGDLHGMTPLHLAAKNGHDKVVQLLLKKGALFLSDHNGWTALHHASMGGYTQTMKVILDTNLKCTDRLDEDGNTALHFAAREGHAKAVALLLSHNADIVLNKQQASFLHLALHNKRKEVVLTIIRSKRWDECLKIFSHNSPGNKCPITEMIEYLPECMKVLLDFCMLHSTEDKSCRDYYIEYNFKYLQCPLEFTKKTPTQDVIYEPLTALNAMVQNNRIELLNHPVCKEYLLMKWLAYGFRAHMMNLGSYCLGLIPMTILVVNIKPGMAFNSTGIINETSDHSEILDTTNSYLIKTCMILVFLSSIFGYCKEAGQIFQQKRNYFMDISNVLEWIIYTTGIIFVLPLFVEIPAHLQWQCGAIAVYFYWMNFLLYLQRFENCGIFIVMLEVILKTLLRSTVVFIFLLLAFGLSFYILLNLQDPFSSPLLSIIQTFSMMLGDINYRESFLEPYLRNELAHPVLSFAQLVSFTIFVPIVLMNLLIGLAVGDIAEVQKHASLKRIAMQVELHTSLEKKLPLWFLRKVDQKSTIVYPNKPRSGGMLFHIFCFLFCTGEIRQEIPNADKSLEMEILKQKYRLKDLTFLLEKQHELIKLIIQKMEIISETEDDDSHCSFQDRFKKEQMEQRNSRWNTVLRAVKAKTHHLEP

Molecular target: T1, TRPA1 receptor (Homo sapiens, UniProt O75762)
T1 construct: expressed in transfected cells; host or cells: HEK cell line
Test: cell-based
Set-up: activation: dose or concentration left out as unconfirmed
Procedure: The term “TRPA1 activator” as used herein refers to any component which at a concentration of 1 mM gives a calcium flux count of at least 1000 counts above the background level of calcium present in the cell according to the FLIPR method as discussed herein. The term “count” is defined as the change in fluorescence of the transfected cell lines due to the influx of calcium across the cell membrane, which reacts with the calcium sensitive dye present within the cells.
In order to select TRPA1 agonists that would be preferred for reducing off-tasting chemical components found in oral care compositions, calcium flux receptor activity on the TRPA1 was utilized as the criteria for selection of actives. With allyl isothiocyanate as the TRPA1 positive control, molecules that directly activated the TRPA1 receptor were screened in dimethylsulfoxide (DMSO). Pure molecules of each material were dissolved in DMSO at a concentration of 100 micormolar and then added to an HEK cell line containing the TRPA1 receptor. If they are TRPA1 agonists, they will cause a calcium flux in the cell which fluoresces and may then be measured using a FLIPR machine.

[1] = HEK293, read-out: TRPA1 Direct addition
[2] = HEK293, read-out: TRPA1 Pre-incubation
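Throughout, for TRPA1 Pre-incubation: values above 100 mean more active than the control.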

| activation [1] [%] | activation [2] [%] | Molecule | TRPA1 Direct addition [%] | TRPA1 Pre-incubation [%] |
| --- | --- | --- | --- | --- |
| -2.55 | 38.1 | CCCCCC(C=O)=Cc1ccccc1 [Alpha-Amylcinnamaldehyde] |  |  |
| -1.66 | 63.1 | O=C(O)C=Cc1ccccc1 [Cinnamic Acid] |  |  |
|  |  | Zinc Phosphate | 23.15 | 54.62 |

| Molecule | activation [1] [%] | activation [2] [%] | TRPA1 Direct addition [%] | TRPA1 Pre-incubation [%] |
| --- | --- | --- | --- | --- |
| CC(=O)CCC=C(C)C [6-Methyl-5-Hepten-2-one] | 0.49 | -1.44 |  |  |

Read-outs that look alike come from different tables or passages of the source.
